The text below walks through data of article PMC11703230 (bioRxiv, 2025).

Chains of the proteins cited; added tags and fusions are not shown. Residues count along the entry.
UniProt P06701, 1-850, stated change not applied: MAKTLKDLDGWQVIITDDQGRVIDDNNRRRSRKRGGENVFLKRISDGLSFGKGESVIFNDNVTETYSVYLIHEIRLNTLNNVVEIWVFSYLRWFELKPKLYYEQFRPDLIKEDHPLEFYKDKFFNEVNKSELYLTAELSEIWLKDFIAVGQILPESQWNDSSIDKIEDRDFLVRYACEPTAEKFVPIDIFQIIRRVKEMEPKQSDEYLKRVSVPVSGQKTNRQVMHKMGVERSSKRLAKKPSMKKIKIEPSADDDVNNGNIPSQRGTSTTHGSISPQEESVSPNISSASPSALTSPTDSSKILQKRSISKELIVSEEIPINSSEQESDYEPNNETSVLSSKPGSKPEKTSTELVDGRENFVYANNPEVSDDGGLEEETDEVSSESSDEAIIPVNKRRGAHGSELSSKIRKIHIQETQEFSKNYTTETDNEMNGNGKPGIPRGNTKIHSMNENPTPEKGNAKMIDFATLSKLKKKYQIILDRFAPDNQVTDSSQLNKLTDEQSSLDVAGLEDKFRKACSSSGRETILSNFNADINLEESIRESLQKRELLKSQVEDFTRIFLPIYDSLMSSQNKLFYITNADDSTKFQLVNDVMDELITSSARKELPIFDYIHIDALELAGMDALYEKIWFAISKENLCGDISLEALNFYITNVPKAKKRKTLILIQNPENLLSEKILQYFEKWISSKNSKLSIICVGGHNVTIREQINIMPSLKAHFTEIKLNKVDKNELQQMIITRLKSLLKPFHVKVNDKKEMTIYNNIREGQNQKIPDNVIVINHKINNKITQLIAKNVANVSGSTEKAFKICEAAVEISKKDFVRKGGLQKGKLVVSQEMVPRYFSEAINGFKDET

The target in one experiment is T1, MBP-Sir4(744-1358) (S. cerevisiae, UniProt P11978 744-1358).
T1 sequence (looked up): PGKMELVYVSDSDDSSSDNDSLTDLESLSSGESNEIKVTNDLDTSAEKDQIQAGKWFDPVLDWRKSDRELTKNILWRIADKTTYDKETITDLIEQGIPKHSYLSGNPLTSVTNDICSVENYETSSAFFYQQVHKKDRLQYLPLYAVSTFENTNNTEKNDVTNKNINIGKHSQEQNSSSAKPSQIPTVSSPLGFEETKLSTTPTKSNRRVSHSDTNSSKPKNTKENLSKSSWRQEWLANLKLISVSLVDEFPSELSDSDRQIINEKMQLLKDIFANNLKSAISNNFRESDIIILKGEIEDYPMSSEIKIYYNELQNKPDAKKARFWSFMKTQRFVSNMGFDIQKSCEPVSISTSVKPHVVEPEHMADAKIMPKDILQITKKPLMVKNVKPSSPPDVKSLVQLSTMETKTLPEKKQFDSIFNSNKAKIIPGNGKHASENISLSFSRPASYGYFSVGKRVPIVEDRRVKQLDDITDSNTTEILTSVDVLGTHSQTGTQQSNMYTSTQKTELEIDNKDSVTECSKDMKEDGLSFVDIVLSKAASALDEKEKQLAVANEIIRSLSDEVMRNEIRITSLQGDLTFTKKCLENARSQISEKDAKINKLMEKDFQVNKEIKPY
Nature of the experiment: cross-linking.

Experiment [1] addresses Sir3 winged helix deletion (Sir3 1-850) (S. cerevisiae, UniProt P06701). Nature of the experiment: cross-linking.

B1: Sir2 (untagged final), full-length (enzyme, S. cerevisiae, UniProt P06700 1-562, looked up)
chain: MTIPHMKYAVSKTSENKVSNTVSPTQDKDAIRKQPDDIINNDEPSHKKIKVAQPDSLRETNTTDPLGHTKAALGEVASMELKPTNDMDPLAVSAASVVSMSNDVLKPETPKGPIIISKNPSNGIFYGPSFTKRESLNARMFLKYYGAHKFLDTYLPEDLNSLYIYYLIKLLGFEVKDQALIGTINSIVHINSQERVQDLGSAISVTNVEDPLAKKQTVRLIKDLQRAINKVLCTRLRLSNFFTIDHFIQKLHTARKILVLTGAGVSTSLGIPDFRSSEGFYSKIKHLGLDDPQDVFNYNIFMHDPSVFYNIANMVLPPEKIYSPLHSFIKMLQMKGKLLRNYTQNIDNLESYAGISTDKLVQCHGSFATATCVTCHWNLPGERIFNKIRNLELPLCPYCYKKRREYFPEGYNNKVGVAASQGSMSERPPYILNSYGVLKPDITFFGEALPNKFHKSIREDILECDLLICIGTSLKVAPVSEIVNMVPSHVPQVLINRDPVKHAEFDLSLLGYCDDIAAMVAQKCGWTIPHKKWNDLKNKNFKCQEKDKGVYVVTSDEHPKTL
B1: the binding result (with MBP-Sir4(744-1358); in experiment [1]) was “binds” each time.
